# Experimental data as given in PubChem BioAssay AID710 (SRMLSC, 2007).
# Only a part is listed here, and it is no random draw. Some results for these compounds are left out of this collection, so the calls shown say nothing about other tests. Calls of active or inactive are those of the source.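 Rule for the calls: active = growth inhibition above about 50% at one test dose (limit read from the data); inactive = the rest.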
# Assay: antibacterial activity against E. coli BW25113 – strain BW25113, expanded library, OD600, primary screen (AID 710);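 note: growth measured after 20 h incubation at 37 °C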
# Details: OD600 absorbance, at 100 µM, hits give high values
row,SMILES,growth inhibition
1,CC(C)N1C(=O)CC2(CCN(CCOC(=O)C(O)(c3ccccc3)c3ccccc3)CC2)C1=O,inactive: 7%
2,CN(C)c1cccc(C(=O)NCC2(N(C)C)CCCCC2)c1,inactive: 4%
3,O=C(OC1CN2CCC1CC2)C(CO)(c1ccccc1)c1ccccc1 (stereo not drawn),inactive: 5%
